Values quoted from earlier work in patent US20070010466A1 (priority 2005, published 2007).

Tested on: acute myelogenous leukemia
Settings: enrollment halted; cited from earlier work

C/C=C/C[C@@H](C)C(=O)[C@H]1C(=O)N[C@@H](C(C)C)C(=O)N(C)CC(=O)N(C)[C@@H](CC(C)C)C(=O)N[C@@H](C(C)C)C(=O)N(C)[C@@H](CC(C)C)C(=O)N[C@@H](C)C(=O)N[C@H](C)C(=O)N(C)[C@@H](CC(C)C)C(=O)N(C)[C@@H](CC(C)C)C(=O)N(C)[C@@H](C(C)C)C(=O)N1C [valspodar]
mortality in the valspodar arm: excessive early mortality
